Source: patent US4543256A, “(-)-10,1L Methylenedioxy-N-N-propylnoraporphine and methods employing it for inhibiting the effects of epileptic seizures and for prevention and treatment of duodenal ulcers” (Northeastern University, priority 1982, dated 1985)

Test system: duodenal ulcers
Assay: Cysteamine-induced duodenal ulcer in the rat
Details: once daily for seven days before cysteamine-hydrochloride

CCCN1CCc2cccc3c2[C@H]1Cc1ccc2c(c1-3)OCO2 [MDO-NPA, (-) 10, 11-methylenedioxy-N-n-propylnoraporphine-HCl]
dose effective in preventing ulcers: 100 micrograms per hundred grams of body weight

Where a name gives a salt, the structure may show the parent alone.
